Nrf2 ARE act – activators of Nrf2 (ARE) signaling; 0.31% of 410,000 active; AREc32 ARE-luciferase reporter (MCF7-derived line), luminescence, 24 h; Potency, µM (doses to about 46.1 µM), inactives show top-dose activation, usual class: activators; AID 624171; also: potency is read from the fitted curve at half-maximal effect; % of control where 0% means no effect; nearly all actives have a fitted effect of over 65% in size
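AREc32_Fluc, 1000 cells/well, OPTI-MEM + 5% FBS, o/n 37 deg C 5% CO2; 23 nL cpd by pin tool, 24 hr; Steady-Glo 30 min RT, luminescence.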
A549 tox – counter-screen for Nrf2 inhibitors: cytotoxicity in A549 cells; 0.16% of 390,000 active; AID 504648; Potency, µM (doses to about 46 µM), without a hit: at the top dose activity change, negative = cytotoxicity, actives largely listed as inhibitors; A549 ARE-Fluc cells, CellTiter-Fluor viability, 18-24 h; also: potency is read from the fitted curve at half-maximal effect; % is scaled to controls: 0 for no effect and ±100 for the full control effect
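Cytotoxicity counterscreen: CellTiter-Fluor fluorescence was measured in A549 ARE_Fluc cells after 18-24 h of compound exposure in a concentration series. The subsequent BugLite luminescent read reports ARE-luciferase activity.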
miR-21 FLuc – raises the signal of a miR-21 reporter; HeLa miR-21 FLuc reporter, luciferase, 48 h; Potency, µM (top dose mostly 38.3 µM), for inactives: at the highest dose reporter change, positive = more light; AID 2288; 340,000 tested, under 10 active; active = well fitted rising curve with a large enough effect; inconclusive = small, poorly fitted or top-dose-only effect; inactive = no such curve, though single readings can be large or run the other way;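 note: % of control where 0% means no effect; miR-21 action dims this reporter so a rising signal means less miR-21 action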
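HeLa miR-21-FLuc reporter line, endogenous miR-21; 2000 cells/well in DMEM/10% FBS; compound titration up to ~40uM final, 48 h, 37 degree Celsius; luciferase detection reagent, 15 min lysis, CCD luminescence.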
Nrf2 block – Nrf2 pathway inhibition; A549 ARE-Fluc reporter, luciferase luminescence, 18-24 h; Potency, µM (doses to about 46 µM), for the others: at the top dose activity change, negative = inhibition, usual class: inhibitors; 2.1% of 360,000 active; AID 504444; also: potency is read from the fitted curve at half-maximal effect; % is scaled to controls: 0 for no effect and ±100 for the full control effect; nearly all actives have a fitted effect of over 60% in size
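A549 ARE_Fluc cells (5000/well, 5% FBS OPTI-MEM) pre-incubated 2 h, then treated with compounds 18-24 h at 37C/5% CO2 in concentration-response. CellTiter-Fluor viability read first; BugLite luciferase luminescence after 15 min at room temperature gives Nrf2 activity.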
GRP78 ERSR act – induces the endoplasmic reticulum stress response in human glioma cells; U87-MG GRP78 promoter luciferase reporter, 16 h; Potency, µM, for inactives: at the top dose activation, hits mostly activators; 0.02% of 420,000 active; AID 602332; also: potency is read from the fitted curve at half-maximal effect; series mostly up to about 76 µM; % of control where 0% means no effect; nearly all actives have a fitted effect of over 35% in size
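Stably transfected U87-MG human glioma cells carrying a GRP78-based luminescent sensor were seeded at 1000 cells/well, pin-dosed with compounds and incubated 16 h. Luciferase reagent was then added, and end-point luminescence was read after 10 min at room temperature.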
Mito fusion yeast – blocks mitochondrial division or promotes mitochondrial fusion; Potency, µM (top dose mostly 46.1 µM), for inactives: top-dose growth rescue (activation), usual class: activators; 0.23% of 320,000 active; AID 485298; S. cerevisiae fusion-defective mutant growth rescue, CellTiterGlo 48 h; also: potency is read from the fitted curve at half-maximal effect; % of control where 0% means no effect; nearly all actives have a fitted effect of over 45% in size
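Growth-rescue viability read-out: after 48 h at the non-permissive 37C in glycerol/ethanol YPEG, yeast mitochondrial fusion mutants are measured by CellTiterGlo luminescence; compounds (23 nl pinned per well) restoring growth score as division inhibitors or fusion activators.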
* hit, by the source's call; ? = inconclusive; nt = no result. In the library only some 2.3% were active in any assay of this set; here they are far more common. Calls follow the shape of the dose curve; as a rule, active = well fitted curve in the direction sought with a large enough effect; inconclusive = small, poorly fitted or top-dose-only effect, or another doubt; inactive = no such curve, though single readings can be large; an effect the other way counts as inactive or inconclusive.

Letter code: A = Nrf2 ARE act; B = A549 tox; C = miR-21 FLuc; D = Nrf2 block; E = GRP78 ERSR act; F = Mito fusion yeast
(1) CCOC(=O)C(Cc1ccccc1)c1ccnc2nc(N)nn12 (stereo not drawn)
  A: 1.0%; B: -1.8%; C: -4.6%; D: 8.8%; E: 1.1%; F: 0.5%

(2) COc1cccc(CN2CC(C(=O)N3CCCCCCC3)CCC2=O)c1 (stereo not drawn)
  A: 0.1%; B: -1.4%; C: -3.2%; D: 0.4%; E: -3.6%; F: 7.1%

(3) Cc1c(C(=O)O)c(O)cc2c1C(=O)c1c(O)c([C@@H]3O[C@H](CO)[C@@H](O)[C@H](O)[C@H]3O)c(O)c(O)c1C2=O
  A: -0.2%; B: 20.6µM*; C: nt; D: ?; E: -4.2%; F: nt

(4) Cc1c(C(=O)O)c(O)cc2c1C(=O)c1c(O)c([C@H]3O[C@H](CO)[C@@H](O)[C@H](O)[C@H]3O)c(O)c(O)c1C2=O
  A: nt; B: nt; C: nt; D: nt; E: -7.3%; F: nt

(5) CCN(CC)c1ccc(NC(=O)Nc2cccc3ccccc23)cc1
  A: 12.8%; B: 0.2%; C: -40.2%; D: -8.7%; E: 2.3%; F: 0.8%

(6) O=S(=O)(c1ccccc1Cl)N1CCCC(c2nc(-c3cccnc3)no2)C1 (stereo not drawn)
  A: 2.2%; B: 4.3%; C: 6.6%; D: 25.9µM*; E: -3.6%; F: 11.4%

(7) COc1ccc(-c2noc(C3CCCN(S(=O)(=O)c4cccc(Cl)c4C)C3)n2)cc1OC (stereo not drawn)
  A: 0.0%; B: -3.5%; C: 1.2%; D: ?; E: -1.8%; F: 10.9%

(8) CCNc1nc(NCc2ccccc2)nc(SCC(=O)Nc2ccccc2)n1
  A: 3.5%; B: -15.6%; C: 12.0%; D: 23.1µM*; E: -5.0%; F: 8.5%

(9) Cc1cc(-c2ccccc2)nc(N/N=C/c2ccc(O)cc2)n1
  A: 8.91µM*; B: -8.1%; C: nt; D: -27.8%; E: 9.6%; F: -6.4%

(10) C/C(=N\Nc1nc(C)cc(-c2ccccc2)n1)c1ccc(F)cc1
  A: -0.5%; B: 23.1%; C: 0.5%; D: ?; E: -1.0%; F: -9.2%

Further compounds
Letter code: A = Nrf2 ARE act; B = A549 tox; C = miR-21 FLuc; D = Nrf2 block; E = GRP78 ERSR act; F = Mito fusion yeast
(11) COc1ccc(/C(C)=N/Nc2nc(C)cc(-c3ccccc3)n2)cc1
  A: 2.5%; B: -14.5%; C: nt; D: 14.6µM*; E: -1.7%; F: nt

(12) Oc1ccc(/C=N/Nc2nc(-c3ccc(Cl)cc3)cc(C(F)(F)F)n2)cc1
  A: -2.9%; B: ?; C: ?; D: 16.4µM*; E: -11.1%; F: 16.9%

(13) COc1ccc(N2CC(C)(C)[C@H](CC(=O)Nc3ccc(Br)cc3)C2=O)cc1
  A: 3.8%; B: nt; C: nt; D: nt; E: -4.8%; F: nt

(14) C/C=C(\C)C(=O)OC1[C@H](OC(C)=O)C2(CO)C(CC1(C)C)C1=CCC3C4(C)CCC(O[C@@H]5O[C@H](C(=O)O)[C@@H](O[C@@H]6O[C@H](CO)[C@@H](O)[C@H](O)[C@H]6O)[C@H](O)[C@H]5O[C@H]5O[C@H](CO)[C@@H](O)[C@H](O)[C@H]5O)[C@](C)(CO)C4CCC3(C)[C@]1(C)C[C@H]2O (stereo partly drawn)
  A: -3.2%; B: ?; C: nt; D: 18.4µM*; E: -10.7%; F: nt

(15) CCN(CC)CCNC(C(=O)Nc1cccc(C(C)=O)c1)c1ccccc1 (stereo not drawn)
  A: 2.5%; B: 6.3%; C: 2.7%; D: 13.2%; E: -3.1%; F: -5.6%

(16) CCn1c(C(=O)N2CCCC(C(=O)NCCCc3ccccc3)C2)cc2sccc21 (stereo not drawn)
  A: 2.7%; B: ?; C: 22.5%; D: 16.4µM*; E: -6.4%; F: ?

(17) CCN1CCN(CCNC(=O)c2cn(Cc3ccccc3F)nn2)CC1
  A: -0.5%; B: 13.6%; C: -3.5%; D: 4.4%; E: -2.5%; F: -3.6%

(18) S=C(NCC1CCCO1)N1CCN(c2nc(-c3ccc(Cl)cc3)cs2)CC1 (stereo not drawn)
  A: 5.3%; B: ?; C: 23.1%; D: 16.4µM*; E: -6.9%; F: 19.5%

(19) S=C(NCC1CCCO1)N1CCN(c2cccc(Cl)c2)CC1 (stereo not drawn)
  A: 0.0%; B: -1.4%; C: 8.5%; D: 20.6µM*; E: -1.5%; F: -3.7%

(20) S=C(NCCCN1CCOCC1)N1CCN(c2nc(-c3ccc(Cl)cc3)cs2)CC1
  A: -2.8%; B: ?; C: -1.8%; D: 13µM*; E: -13.0%; F: 6.3%

(listing goes on)
Letter code: A = Nrf2 ARE act; B = A549 tox; C = miR-21 FLuc; D = Nrf2 block; E = GRP78 ERSR act; F = Mito fusion yeast
(21) Fc1ccc(N2CCN(C(=S)NCC3CCCO3)CC2)cc1 (stereo not drawn)
  A: -0.5%; B: 3.6%; C: 2.5%; D: -23.6%; E: -1.2%; F: -8.0%

(22) CCCNc1nc(C#N)nc(Nc2ccccc2)n1
  A: nt; B: -4.7%; C: nt; D: 6.1%; E: nt; F: nt

(23) COC(=O)C1=C(C)NC2=C(C(=O)CCC2)C1c1cn(Cc2ccc(Cl)cc2Cl)nc1-c1ccccc1 (stereo not drawn)
  A: -0.6%; B: ?; C: 0.6%; D: 25.9µM*; E: 2.3%; F: 0.9%

(24) CC1=CC(=O)N(c2ccc(C)cc2)C1c1ccc(Cl)cc1 (stereo not drawn)
  A: 0.2%; B: 15.9%; C: -5.4%; D: 6.9%; E: -0.9%; F: 6.5%

(25) CC1=CC(=O)N(c2cccc(C(F)(F)F)c2)C1c1ccc(Cl)cc1 (stereo not drawn)
  A: 0.3%; B: ?; C: 22.6%; D: 23.1µM*; E: -2.1%; F: -14.9%

(26) Cc1ccc(N=C2NC(=O)/C(=C/c3cn(C)c4ccccc34)S2)cc1C
  A: 0.4%; B: -18.9%; C: -18.0%; D: 23.1µM*; E: -2.8%; F: ?

(27) Cn1cccc1/C=C1\SC(=Nc2ccccc2)NC1=O
  A: 17.0%; B: ?; C: -23.1%; D: 19.0%; E: 4.6%; F: 17.5%

(28) CCC1=Nc2ccccc2NC2=C1C(=O)CCC2
  A: 12.7%; B: 5.1%; C: -24.9%; D: nt; E: 4.0%; F: -2.6%

(29) Cc1ccc(NC(=O)COC(=O)c2c(-c3ccccc3)noc2C)cc1
  A: 2.9%; B: -5.5%; C: nt; D: ?; E: -4.3%; F: -3.0%

(30) Cc1onc(-c2ccccc2)c1C(=O)OCC(=O)Nc1ccc(OC(F)(F)F)cc1
  A: 0.8%; B: -8.3%; C: nt; D: 23.1µM*; E: -3.2%; F: 8.9%

(listing goes on)
Letter code: A = Nrf2 ARE act; B = A549 tox; C = miR-21 FLuc; D = Nrf2 block; E = GRP78 ERSR act; F = Mito fusion yeast
(31) Cc1onc(-c2ccccc2)c1C(=O)OCC(=O)Nc1ccc(Cl)cc1
  A: 0.3%; B: ?; C: nt; D: 23.1µM*; E: -5.2%; F: ?

(32) CCOc1ccccc1NC(=O)Cn1c(=O)oc2cc(S(=O)(=O)NCc3ccccc3)ccc21
  A: 0.8%; B: 0.8%; C: 6.3%; D: nt; E: -3.0%; F: nt

(33) CCCCn1c(CCC)nc([N+](=O)[O-])c1Sc1ccc(Cl)cn1
  A: 11.2µM*; B: 0.8%; C: 28.4%; D: ?; E: -1.3%; F: 15.9%

(34) CC(C)Cn1c(C(C)C)nc([N+](=O)[O-])c1Sc1ccc(Cl)cn1
  A: ?; B: -3.2%; C: -2.4%; D: -15.8%; E: -6.3%; F: 12.4%

(35) Cc1ccc2oc(=O)c(/C=C(\O)c3ccccc3)nc2c1
  A: 14.1µM*; B: -8.0%; C: -50.8%; D: -8.7%; E: ?; F: -15.1%

(36) C/C(O)=C\c1nc2ccccc2oc1=O
  A: 15.8µM*; B: -5.7%; C: -13.5%; D: -7.6%; E: 9.6%; F: -6.0%

(37) Cc1ccc2oc(=O)c(/C=C(\O)c3cccs3)nc2c1
  A: 15.8µM*; B: 0.5%; C: -87.9%; D: ?; E: -0.8%; F: 1.2%

(38) O=C(CSc1nnc(-c2cccs2)n1-c1ccccc1)Nc1ccccc1
  A: -0.7%; B: -0.5%; C: 1.6%; D: -11.7%; E: -4.1%; F: -3.0%

(39) CCn1c(=NC(=O)CS(=O)(=O)c2ccc(F)cc2)sc2cccc(OC)c21
  A: -0.4%; B: -1.4%; C: nt; D: 20.6µM*; E: 1.3%; F: 8.7%

(40) CCOC(=O)c1cc(C)n(Cc2cccc(OC)c2OC)c1C
  A: -0.4%; B: -22.7%; C: 12.8%; D: 23.1µM*; E: -3.1%; F: -1.8%

(41) CCOC(=O)c1c(C)c(C)n(Cc2cccc(OC)c2OC)c1C
  A: 0.6%; B: 9.2%; C: -0.2%; D: ?; E: -5.0%; F: 16.7%

Compound profiles, as listed above:
C/C(O)=C\c1nc2ccccc2oc1=O reads Nrf2 ARE act: 15.8µM*; A549 tox: -5.7%; miR-21 FLuc: -13.5%; Nrf2 block: -7.6%; GRP78 ERSR act: 9.6%; Mito fusion yeast: -6.0%
CC(C)Cn1c(C(C)C)nc([N+](=O)[O-])c1Sc1ccc(Cl)cn1 reads Nrf2 ARE act: ?; A549 tox: -3.2%; miR-21 FLuc: -2.4%; Nrf2 block: -15.8%; GRP78 ERSR act: -6.3%; Mito fusion yeast: 12.4%
